Consider one compound from patent US20230033360A1, “COMPOUNDS AS CD73 INHIBITORS” (BioArdis LLC, priority 2019, published 2023).

Chains of the proteins cited; added tags and fusions are not shown. Residues count along the entry.
UniProt P21589, 27-547 limits assumed: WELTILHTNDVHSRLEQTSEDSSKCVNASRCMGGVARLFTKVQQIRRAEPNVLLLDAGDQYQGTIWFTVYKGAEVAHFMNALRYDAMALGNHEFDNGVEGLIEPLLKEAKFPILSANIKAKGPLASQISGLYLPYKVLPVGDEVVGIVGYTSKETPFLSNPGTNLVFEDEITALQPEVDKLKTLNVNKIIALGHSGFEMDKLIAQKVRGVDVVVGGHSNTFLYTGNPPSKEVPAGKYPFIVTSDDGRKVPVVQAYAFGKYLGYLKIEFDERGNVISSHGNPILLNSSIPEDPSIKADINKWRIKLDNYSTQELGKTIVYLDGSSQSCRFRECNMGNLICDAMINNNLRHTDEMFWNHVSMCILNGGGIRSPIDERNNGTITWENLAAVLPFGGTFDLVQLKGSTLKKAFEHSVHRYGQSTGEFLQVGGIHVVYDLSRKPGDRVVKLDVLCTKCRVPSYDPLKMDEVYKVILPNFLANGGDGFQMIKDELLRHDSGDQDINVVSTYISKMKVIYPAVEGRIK

This assay has as its target Recombinant Human 5′-Nucleotidase (CD73) (Homo sapiens, UniProt P21589). In words: CD73 Enzyme Assay (PiColorLock inorganic phosphate detection, AMP substrate). As to conditions: read-out: Potency (IC50); human CD73 0.5 nM, AMP 30 μM, 20 min at 37° C., absorbance 635 nm. An excerpt:
Soluble recombinant CD73 catalyzes the conversion of adenosine monophosphate (AMP) to adenosine and inorganic phosphate. The phosphate detection reagent, PiColorLock™ (Innova Bioscience, Cat #303-0125) is based on the change in absorbance of the dye malachite green in the presence of inorganic phosphate (Pi) and this property can be exploited to measure any enzyme that generates Pi. Recombinant Human 5′-Nucleotidase (CD73) (R&D #5795-EN, CHO derived CD73 (Trp27-Lys547), with a C-terminal 6-His tag) was used in the enzymatic assay. This assay, run in a 384-well plate format (Corning® NBS™ 384 well plates, Cat #3640), is a generic method for measuring inorganic phosphate. […] After incubation the absorbance of the solution is read at OD 635 nm. The recorded OD signal is proportional to the enzyme activity.
Briefly, 25 μl human CD73 (0.5 nM final concentration) in the enzymatic buffer solutions (20 mM Tris, 25 mM NaCl, 1 mM MgCl2, pH 7.5, 0.005% Tween-20) were mixed with various concentrations of the test compound (dissolved in 100% DMSO). […] The absorbance of the well solutions was measured at 635 nm on a Spark 10M instrument (TECAN).
The percent (%) inhibition at each concentration of a compound was calculated relative to the […] value in the Max and Min control wells contained within each assay plate. […]

Take `N#Cc1cc(N2CC3CCCC3C2)c2ncc([C@@H]3O[C@H](COP(=O)(O)CP(=O)(O)O)[C@@H](O)[C@H]3O)n2n1` (stereo partly shown): the IC50 (commonly the concentration that inhibits the measured activity by half) was less than 1 nM.
